Entries after “also recorded” stand apart in the source; their conditions may differ.
Tested on: oxaliplatin-induced neuropathic pain (cold allodynia)
Assay: Cold plate test in mouse model of oxaliplatin-induced neuropathic pain
Details: p.o.; for pain-relieving effect (licking latency, Cold plate test), in words: acute, 10–100 mg/kg; for pain-relieving effect, in words: 30 and 100 mg/kg; for reversal of oxaliplatin hypersensitivity, in words: higher dose (100 mg/kg)

| SMILES | pain-relieving effect (licking latency, Cold plate test), in words (day 15, listed as (R)-36a) | pain-relieving effect, in words | pain-relieving effect (licking latency, Cold plate test), in words (day 15, listed as (R)-39a) | pain-relieving effect (licking latency, Cold plate test), in words (day 15, listed as (S)-39a) | reversal of oxaliplatin hypersensitivity, in words |
| --- | --- | --- | --- | --- | --- |
| NS(=O)(=O)c1cccc(NC(=S)N[C@@H]2CCN(c3ccccn3)C2)c1 [36a, (R)-3-(3-(1-(Pyridin-2-yl)pyrrolidin-3-yl)thioureido)benzenesulfonamide] | dose-dependent effectiveness; also recorded: moderate and shorter relieving outcomes | – | – | – | – |
| NS(=O)(=O)c1ccc(NC(=S)N[C@@H]2CCN(c3ccc(C(F)(F)F)cn3)C2)cc1 [39a, (R)-4-(3-(1-(5-(Trifluoromethyl)pyridin-2-yl)pyrrolidin-3-yl)thioureido)benzenesulfonamide] | – | significantly effective | far more effective and lasting compared to its (S)-counterpart | slightly better profile | completely reverting oxaliplatin hypersensitive |
| NS(=O)(=O)c1ccc(NC(=S)N[C@H]2CCN(c3ccc(C(F)(F)F)cn3)C2)cc1 [39b, (S)-4-(3-(1-(5-(Trifluoromethyl)pyridin-2-yl)pyrrolidin-3-yl)thioureido)benzenesulfonamide] | – | significantly effective | – | – | completely reverting oxaliplatin hypersensitive |

Source: paper PMC9940855, “First-in-Class Dual Hybrid Carbonic Anhydrase Inhibitors and Transient Receptor Potential Vanilloid 1 Agonists Revert Oxaliplatin-Induced Neuropathy” (Journal of Medicinal Chemistry, 2023)
